Measured values: patent publication US9566342B2, “Compounds for treatment of heart failure” (SOLVOTRIN INNOVATIONS LIMITED, priority 2010, dated 2017)

Assays:
MMP-9 = assay: PMA stimulated fibrosarcoma cell model (HT1080 cells), MMP-9; assay type: cell-based; details: 100 micromolar
MMP-2 = assay: PMA stimulated breast cancer cell model (HT1080 cells), pro-MMP-2 / MMP-2; assay type: cell-based; details: 100 micromolar

Row | Molecule | MMP-9 production (MMP-9) | pro-MMP-2 production (MMP-2)
1 | C[C@H]1c2cccc(O)c2C(=O)C2=C(O)[C@]3(O)C(=O)C(C(=O)NCN(CCO[N+](=O)[O-])CCO[N+](=O)[O-])=C(O)[C@@H](N(C)C)[C@@H]3[C@@H](O)[C@@H]21 [SI1004, amido-N—[N,N-diethylnitrate-aminomethyl]-α-6-deoxy-5-oxytetracycline] | reduce MMP-9 production | reduce pro-MMP-2 production
2 | Amido-N-[3-(Nitrooxymethyl)Piperidinomethyl]-α-6-Deoxy-5-Oxytetracycline | reduce MMP-9 production | to a lesser extent
